{"source": "paper PMC10359466", "about": "“Identification of a small-molecule inhibitor that selectively blocks DNA-binding by Trypanosoma brucei replication protein A1” (Nature Communications, 2023)", "target": "5´Cy5-dT32 ssDNA", "assay": "MST ssDNA-binding assay, dT32", "details": "10 nM 5´Cy5-dT32, MST, one site binding total", "data": [{"substance": "HsRPA complex: recombinant human RPA complex (6xHis-RPA1, RPA2, RPA3)", "values": [{"measurement": "Kd", "value": 15.8, "unit": "nM"}]}]}
